From ChEMBL document CHEMBL2417383, “Assay platform for clinically relevant metallo-β-lactamases” (J Med Chem, 2013)

Assays:
[1] = Ratio of Kcat to Km for recombinant NDM-1 (unknown origin)
[2] = Ratio of Kcat to Km for recombinant VIM-2 (unknown origin)
[3] = Ratio of Kcat to Km for recombinant IMP-1 (unknown origin)
[4] = Ratio of Kcat to Km for recombinant SPM-1 (unknown origin)
[5] = Ratio of Kcat to Km for recombinant Bc2 (unknown origin)

SMILES | kcat/Km [1] | kcat/Km [2] | kcat/Km [3] | kcat/Km [4] | kcat/Km [5]
O=C(Cc1ccccc1)N[C@@H]1C(=O)N2C(C(=O)O)=C(COc3ccc4ccc(=O)oc4c3)CS[C@H]12 | 5.8e+06 M⁻¹ s⁻¹ |  |  |  | 
O=C(Cc1ccccc1)N[C@@H]1C(=O)N2C(C(=O)O)=C(COc3ccc4ccc(=O)oc4c3)CS(=O)(=O)[C@H]12 | 1.24e+08 M⁻¹ s⁻¹ | 1.91e+07 M⁻¹ s⁻¹ | 5.17e+08 M⁻¹ s⁻¹ | 1.03e+07 M⁻¹ s⁻¹ | 3.7e+06 M⁻¹ s⁻¹
O=C(Cc1ccccc1)N[C@@H]1C(=O)N2C(C(=O)O)=C(COc3ccc4ccc(=O)oc4c3)C[S+]([O-])[C@H]12 (stereo partly specified) | 3.2e+07 M⁻¹ s⁻¹ | 2e+07 M⁻¹ s⁻¹ | 8.07e+08 M⁻¹ s⁻¹ | 3.5e+06 M⁻¹ s⁻¹ | 700000 M⁻¹ s⁻¹
O=C(Cc1cccs1)N[C@@H]1C(=O)N2C(C(=O)O)=C(CSc3ccc([N+](=O)[O-])c(C(=O)O)c3)CS[C@H]12 | 2.7e+06 M⁻¹ s⁻¹ | 1.8e+06 M⁻¹ s⁻¹ | 2e+06 M⁻¹ s⁻¹ | 200000 M⁻¹ s⁻¹ | 60000 M⁻¹ s⁻¹
